Assays:
[1] = target: Muscarinic acetylcholine receptor M3 (Homo sapiens, UniProt P20309); test: Displacement of [3H]-N-methyl Scopolamine Chloride from human M3 receptor membranes incubated for 2 hrs by scintillation counting analysis; assay type: cell membranes, Cell membrane
[2] = target: Muscarinic acetylcholine receptor M2 (Homo sapiens, UniProt P08172); test: Displacement of [3H]-N-methyl Scopolamine Chloride from human M2 receptor membranes incubated for 2 hrs by scintillation counting analysis; assay type: cell membranes, Cell membrane

Sequences of proteins named here, by UniProt entry; tags and fusion partners are left off.
UniProt P20309, whole entry: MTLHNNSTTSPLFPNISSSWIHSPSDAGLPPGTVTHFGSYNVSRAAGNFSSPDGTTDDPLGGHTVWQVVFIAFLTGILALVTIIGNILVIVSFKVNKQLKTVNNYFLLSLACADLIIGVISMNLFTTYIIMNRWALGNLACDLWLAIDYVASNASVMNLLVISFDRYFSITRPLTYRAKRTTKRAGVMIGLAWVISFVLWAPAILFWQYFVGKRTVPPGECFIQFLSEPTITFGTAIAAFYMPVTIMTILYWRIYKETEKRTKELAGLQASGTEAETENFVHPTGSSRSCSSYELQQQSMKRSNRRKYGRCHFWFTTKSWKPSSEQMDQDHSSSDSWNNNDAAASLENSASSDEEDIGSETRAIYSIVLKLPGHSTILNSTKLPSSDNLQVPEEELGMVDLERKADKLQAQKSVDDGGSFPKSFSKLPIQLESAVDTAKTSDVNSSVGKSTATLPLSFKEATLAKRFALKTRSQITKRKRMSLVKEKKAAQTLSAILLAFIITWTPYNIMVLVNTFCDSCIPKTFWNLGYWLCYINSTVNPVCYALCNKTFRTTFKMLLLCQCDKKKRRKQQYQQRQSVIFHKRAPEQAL
UniProt P08172, whole entry: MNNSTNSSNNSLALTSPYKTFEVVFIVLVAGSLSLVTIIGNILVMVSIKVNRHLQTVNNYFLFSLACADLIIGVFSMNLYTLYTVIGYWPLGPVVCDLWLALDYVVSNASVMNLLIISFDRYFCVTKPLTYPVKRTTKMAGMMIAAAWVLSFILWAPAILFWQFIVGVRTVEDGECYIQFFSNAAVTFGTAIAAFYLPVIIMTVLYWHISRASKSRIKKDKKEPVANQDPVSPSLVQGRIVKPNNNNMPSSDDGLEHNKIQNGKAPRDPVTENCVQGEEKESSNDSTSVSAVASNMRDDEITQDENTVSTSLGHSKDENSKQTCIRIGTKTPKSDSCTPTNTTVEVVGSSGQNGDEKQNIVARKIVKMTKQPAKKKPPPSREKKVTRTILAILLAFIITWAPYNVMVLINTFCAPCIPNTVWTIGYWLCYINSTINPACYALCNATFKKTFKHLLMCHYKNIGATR

**Q.** Which Ki [1] does the source give for CC(C)[N+]1(C)[C@@H]2CC[C@H]1C[C@@H](OC(=O)C(CO)c1ccccc1)C2 (some centres not stated) [IPRATROPIUM] here?
**A.** Its Ki is 794 pM.

**Q.** And the Ki [2]?
**A.** The Ki was 794 pM.
